The values that follow are results of earlier work, collected in publication PMC3319225.

This data set deals with CD80 (Homo sapiens) (UniProt P33681).

With CTLA-4 (from UniProt P16410), the Kd was 12 nM.
